2 compounds from PubChem BioAssay AID504382 (The Scripps Research Institute Molecular Screening Center, 2011) can be followed below.

The list shows a part of the results, in another mix than the full data. Active and inactive are the calls of the source.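 Rule for the calls: active = mean activation above a cutoff of low control average plus 3 SD from the earlier screen (cut at about 12% in these data); inactive = the rest.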

The assay is described as follows: compound fluorescence interference without thin filaments, confirmation, artefact control for cardiac RTF calcium sensitizer project, biochemical (AID 504382). The following applies: IANBD fluorescence interference counterscreen, buffer, EC20 Ca2+; at 7.2 µM; active compounds read high; scaled: EC20 calcium 0, EC100 calcium 100. The procedure, abridged:
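Technique: fluorescence, 480/540 nm / Medium: MOPS-based buffer with KCl, MgCl2, EGTA, NTA, DTT, pH 7.2 / Probe or stimulus: calcium at EC20 level, 0.472 mM final / Repeats: triplicate wells per compound / Times: 15 min compound exposure at 25 °C / Measure: compound fluorescence interference relative to control well signal range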
Take `CN(C)C(=O)c1c([N+](=O)[O-])cc([N+](=O)[O-])cc1[N+](=O)[O-]`: the fluorescence artifact activation is inactive: 0.55%.
With `Cc1cccc(C)c1OP(C)(=O)Nc1ccc(SC(F)(F)F)cc1` (configuration not stated), the fluorescence artifact activation is inactive: 0.07%.
